Columns and labels:
BCR-ABL oncoprotein = tested on: BCR-ABL oncoprotein; design: method as in Savitski et al., 2014; conditions: thermal profiling in live cells; ref Savitski et al., 2014; cited from earlier work
kinases in Jurkat cells = tested on: kinases in Jurkat cells; design: method as in Zhao et al., 2017; conditions: 100 nM dasatinib; live Jurkat cells; covalent capture probe; ref Zhao et al., 2017; cited from earlier work
178 full-length kinases [1] = molecular target: 178 full-length kinases (Homo sapiens, UniProt Q9NSY1); assay: NanoBRET single-dose fractional occupancy profiling of kinase/Nluc library in live HEK293 cells (Table S1); design: dose or concentration left out as unconfirmed; conditions: BMP2K, Nluc N, probe 5
178 full-length kinases [2] = molecular target: 178 full-length kinases (Homo sapiens, UniProt Q9UBE8); assay: as above; design: dose or concentration left out as unconfirmed; conditions: NLK, Nluc C, probe 2
178 full-length kinases [3] = molecular target: 178 full-length kinases (Homo sapiens, UniProt Q13470); assay: as above; design: dose or concentration left out as unconfirmed; conditions: TNK1 (NP_003976), Nluc orientation N, probe 5; replicate 1
178 full-length kinases [4] = molecular target: 178 full-length kinases (Homo sapiens, UniProt P17612); assay: as above; design: dose or concentration left out as unconfirmed; conditions: PRKACA, Nluc C, probe 5
178 full-length kinases [5] = molecular target: 178 full-length kinases (Homo sapiens, UniProt Q13705); assay: as above; design: dose or concentration left out as unconfirmed; conditions: ACVR2B, Nluc C, probe 2
178 full-length kinases [6] = molecular target: 178 full-length kinases (Homo sapiens, UniProt P51956); assay: as above; design: dose or concentration left out as unconfirmed; conditions: NEK3, Nluc N, probe 5
178 full-length kinases [7] = molecular target: 178 full-length kinases (Homo sapiens, UniProt Q15831); assay: as above; design: dose or concentration left out as unconfirmed; conditions: STK11 (NP_000446), Nluc orientation N, probe 5; replicate 2
178 full-length kinases [8] = molecular target: 178 full-length kinases (Homo sapiens, UniProt O76039); assay: as above; design: dose or concentration left out as unconfirmed; conditions: CDKL5, Nluc N, probe 5
178 full-length kinases [9] = molecular target: 178 full-length kinases (Homo sapiens, UniProt Q8IYT8); assay: as above; design: dose or concentration left out as unconfirmed; conditions: ULK2 (NP_001136082), Nluc orientation N, probe 5; replicate 2
178 full-length kinases [10] = molecular target: 178 full-length kinases (Homo sapiens, UniProt Q12852); assay: as above; design: dose or concentration left out as unconfirmed; conditions: MAP3K12, Nluc N, probe 5
178 full-length kinases [11] = molecular target: 178 full-length kinases (Homo sapiens, UniProt Q8WU08); assay: as above; design: dose or concentration left out as unconfirmed; conditions: STK32A (NP_001106195), Nluc orientation N, probe 5; replicate 2
178 full-length kinases [12] = molecular target: 178 full-length kinases (Homo sapiens, UniProt Q13237); assay: as above; design: dose or concentration left out as unconfirmed; conditions: PRKG2, Nluc C, probe 5
178 full-length kinases [13] = molecular target: 178 full-length kinases (Homo sapiens, UniProt O95835); assay: as above; design: dose or concentration left out as unconfirmed; conditions: LATS1, Nluc C, probe 5
178 full-length kinases [14] = molecular target: 178 full-length kinases (Homo sapiens, UniProt Q9NY57); assay: as above; design: dose or concentration left out as unconfirmed; conditions: STK32B (NP_060871), Nluc orientation N, probe 5; replicate 1
178 full-length kinases [15] = molecular target: 178 full-length kinases (Homo sapiens, UniProt P78368); assay: as above; design: dose or concentration left out as unconfirmed; conditions: CSNK1G2, Nluc N, probe 5
178 full-length kinases [16] = molecular target: 178 full-length kinases (Homo sapiens, UniProt Q92630); assay: as above; design: dose or concentration left out as unconfirmed; conditions: DYRK2, Nluc C, probe 5
178 full-length kinases [17] = molecular target: 178 full-length kinases (Homo sapiens, UniProt P31152); assay: as above; design: dose or concentration left out as unconfirmed; conditions: MAPK4, Nluc N, probe 5
178 full-length kinases [18] = molecular target: 178 full-length kinases (Homo sapiens, UniProt Q8IVH8); assay: as above; design: dose or concentration left out as unconfirmed; conditions: MAP4K3, Nluc N, probe 5
178 full-length kinases [19] = molecular target: 178 full-length kinases (Homo sapiens, UniProt O75460); assay: as above; design: dose or concentration left out as unconfirmed; conditions: ERN1, Nluc C, probe 5
178 full-length kinases [20] = molecular target: 178 full-length kinases (Homo sapiens, UniProt P42338); assay: as above; design: dose or concentration left out as unconfirmed; conditions: PIK3CB, Nluc N, probe 3
PIK3CA (PI3Kα) = PIK3CA (PI3Kα) (Homo sapiens, UniProt P42336); assay: NanoBRET target engagement, NanoLuc-PIK3CA, HEK293 cells; conditions: EC50 (compound IC50, probe displacement), live HEK293, probe 3

For `Cc1nc(Nc2ncc(C(=O)Nc3c(C)cccc3Cl)s2)cc(N2CCN(CCO)CC2)n1` [Dasatinib], the “identification of BCR-ABL as a direct target” value (BCR-ABL oncoprotein) is given as “failed to identify”, the “number of kinases occupied >50%” value (kinases in Jurkat cells) is given as “six” and the “Occupancy, % Replicate 2” value (178 full-length kinases [1]) is given as “No Binding”. The “Occupancy, % Replicate 1” value (178 full-length kinases [2]) was “No Binding”, the “Occupancy, % Replicate 1” value (178 full-length kinases [3]) was “No Binding” and the “Occupancy, % Replicate 2” value (178 full-length kinases [4]) was “No Binding”. The “Occupancy, % Replicate 2” value (178 full-length kinases [5]) was “No Binding”, the “Occupancy, % Replicate 1” value (178 full-length kinases [6]) was “No Binding” and the “Occupancy, % Replicate 2” value (178 full-length kinases [7]) was “No Binding”. For the same compound, the “Occupancy, % Replicate 2” value (178 full-length kinases [8]) was “No Binding”, the “Occupancy, % Replicate 2” value (178 full-length kinases [9]) was “No Binding” and the “Occupancy, % Replicate 1” value (178 full-length kinases [10]) was “No Binding”. The “Occupancy, % Replicate 2” value (178 full-length kinases [10]) was “No Binding”, the “Occupancy, % Replicate 2” value (178 full-length kinases [11]) was “No Binding” and the “Occupancy, % Replicate 2” value (178 full-length kinases [12]) was “No Binding”. The “Occupancy, % Replicate 1” value (178 full-length kinases [13]) was “No Binding”, the “Occupancy, % Replicate 1” value (178 full-length kinases [14]) was “No Binding” and the “Occupancy, % Replicate 2” value (178 full-length kinases [15]) was “No Binding”. For the same compound, the “Occupancy, % Replicate 1” value (178 full-length kinases [16]) was “No Binding”, the “Occupancy, % Replicate 1” value (178 full-length kinases [17]) was “No Binding” and the “Occupancy, % Replicate 1” value (178 full-length kinases [18]) was “No Binding”. For the same compound, the “Occupancy, % Replicate 2” value (178 full-length kinases [19]) was “No Binding” and the “Occupancy, % Replicate 2” value (178 full-length kinases [20]) was “No Binding”.

In the case of `Cc1nc(-c2cn3c(n2)-c2ccc(-c4cnn(C(C)(C)C(N)=O)c4)cc2OCC3)n(C(C)C)n1` [Taselisib], the IC50 (PIK3CA (PI3Kα); NanoLuc-PIK3CA Replicate 1) is reported as 0.012 µM and the IC50 (PIK3CA (PI3Kα); NanoLuc-PIK3CA Replicate 2) is reported as 0.0106 µM.
